Ab-91 heavy chain CDR variants: yeast mating affinities

Target: peptide PDVDLGDISGINAS, taken from heptad repeat 2 (HR2) of SARS-CoV-2 spike.

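The parent was found by panning a naive human phage display library on the peptide. Library AAYL51 holds single substitutions and randomly drawn double and triple substitutions in the CDRs. Affinity was read by AlphaSeq, a pooled yeast mating assay with surface-displayed partners. Binding brings cells together so that they mate, and sequencing counts the barcode pairs among the diploids. A regression on co-assayed BCL2-family reference pairs converts the normalised counts of each replicate to an apparent Kd. Each pool was mated in three replicate cultures.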

Ab-91 is the parent antibody, in scFv form: VL, then three GGGGS repeats, then VH. The light chain is unchanged in all variants.
VL: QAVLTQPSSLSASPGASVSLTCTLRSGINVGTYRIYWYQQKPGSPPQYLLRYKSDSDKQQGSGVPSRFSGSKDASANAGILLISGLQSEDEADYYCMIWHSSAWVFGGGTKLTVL
VH: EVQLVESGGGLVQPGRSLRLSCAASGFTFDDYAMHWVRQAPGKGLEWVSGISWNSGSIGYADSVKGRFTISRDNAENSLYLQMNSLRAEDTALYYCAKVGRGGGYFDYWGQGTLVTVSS

Each variant's VH is given in full. Values are log10 of the apparent Kd in nM; lower means stronger binding. A mean of the replicates is given; it leaves out those without a signal. A pair that was not seen in that replicate is written "nd"; this usually means weak binding, but a binder can also be missed. Empty control strains, which show no peptide, gave a signal in 21% of pairings with library AAYL51; the median was 4.54 and 95% of these signals were weaker than 3.26. No background was subtracted. For each scFv, signals with the empty controls are counted beside the result, with their mean in brackets.

VH,log10 Kd (nM) by replicate,mean log10 Kd (nM),empty controls
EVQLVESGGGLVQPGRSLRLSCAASGFTFDDFAMHWVRQAPGKGLEWVSGISWWIGSIGYADSVKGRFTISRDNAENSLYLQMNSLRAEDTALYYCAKVGRGGGYFDYWGQGTLVTVSS,nd nd nd,nd,0/9
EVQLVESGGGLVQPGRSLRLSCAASGFTFDDYAMHWVRQAPGKGLEWVSGISPNSGSIGKADQVKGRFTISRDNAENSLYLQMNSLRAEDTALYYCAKVGRGGGYFDYWGQGTLVTVSS,4.70 4.11 5.37,4.73,7/9 (4.65)
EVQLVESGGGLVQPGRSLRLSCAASGFTFDDYAMHWVRQAPGKGLEWVSGISRNSGSIGYADSVKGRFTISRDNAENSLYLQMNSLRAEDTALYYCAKGGRGGGYQDYWGQGTLVTVSS,nd nd 4.93,4.93,3/9 (4.60)
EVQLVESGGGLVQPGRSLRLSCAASGFTFDDYAMHWVRQAPGKGLEWVSGISWNSYSIGYADSVIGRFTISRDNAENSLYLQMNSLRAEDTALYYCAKVGRGGGYNDYWGQGTLVTVSS,1.84 1.67 1.55,1.69,3/9 (4.94)
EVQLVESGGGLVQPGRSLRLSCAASGFTFDDYAMHWVRQAPGKGLEWVSGISWVSGSIGYNDSVKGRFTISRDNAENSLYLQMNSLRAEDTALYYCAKVGRPGGYFDYWGQGTLVTVSS,5.23 5.40 nd,5.32,9/9 (5.41)
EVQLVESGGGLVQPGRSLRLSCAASDFTFDDYAMHWVRQAPGKGLEWVSGISWNSGSIGIADSVKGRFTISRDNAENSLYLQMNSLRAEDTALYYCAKVGRGGGYFDYWGQGTLVTVSS,nd nd nd,nd,2/9 (4.70)
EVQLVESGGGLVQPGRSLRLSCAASGFTFDDYAMHWVRQAPGKGLEWVSGINNNSGSIGYADSVKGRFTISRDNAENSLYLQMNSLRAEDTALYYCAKVGRGGGYFDYWGQGTLVTVSS,nd 3.74 nd,3.74,0/9
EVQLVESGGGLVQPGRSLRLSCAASGFTFDDYAMHWVRQAPGKGLEWVSGISWNSGSIGYAGHVKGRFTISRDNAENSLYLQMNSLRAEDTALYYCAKVGRGGGYLDYWGQGTLVTVSS,nd 4.28 3.68,3.98,0/9
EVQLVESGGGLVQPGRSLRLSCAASGFTFDDYAMPWVRQAPGKGLEWVSGISWLSGSIGYADSVKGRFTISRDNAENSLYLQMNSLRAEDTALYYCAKSGRGGGYFDYWGQGTLVTVSS,nd nd nd,nd,1/9 (4.14)
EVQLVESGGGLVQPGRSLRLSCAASGFTFDDYAMHWVRQAPGKGLEWVSGISWGSGSVGYADSVKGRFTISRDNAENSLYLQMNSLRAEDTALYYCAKVPRGGGYFDYWGQGTLVTVSS,5.20 4.72 4.17,4.70,3/9 (4.16)
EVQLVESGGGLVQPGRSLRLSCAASGFTFDDYAMHWVRQAPGKGLEWVSGISWSSGSIGYADSVKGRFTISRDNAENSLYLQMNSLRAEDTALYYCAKVGRKGGGFDYWGQGTLVTVSS,1.66 1.91 1.64,1.74,6/9 (4.31)
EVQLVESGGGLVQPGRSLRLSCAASGFTFDMYAMHWVRQAPGKGLEWVSEISWNSGSIGYADSFKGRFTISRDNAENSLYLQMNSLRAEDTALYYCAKVGRGGGYFDYWGQGTLVTVSS,nd nd nd,nd,0/9
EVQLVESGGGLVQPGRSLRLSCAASNFTFDDYHMHWVRQAPGKGLEWVSGISWNSGSIGYADSVKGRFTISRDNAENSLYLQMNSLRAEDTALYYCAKSGRGGGYFDYWGQGTLVTVSS,5.46 nd 5.61,5.54,6/9 (4.93)
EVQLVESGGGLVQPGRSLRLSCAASGFTFDDYAMHWVRQAPGKGLEWVSGISWNSGSIGPHDSVKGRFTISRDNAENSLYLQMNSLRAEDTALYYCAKVGRGGGYFDYWGQGTLVTVSS,nd 4.24 5.11,4.67,3/9 (4.62)
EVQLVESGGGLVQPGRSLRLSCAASRFQFDDYAMIWVRQAPGKGLEWVSGISWNSGSIGYADSVKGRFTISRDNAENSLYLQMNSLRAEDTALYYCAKVGRGGGYFDYWGQGTLVTVSS,nd nd nd,nd,0/9

The 2 strongest on average among those seen in every replicate, once more:

{"VH": "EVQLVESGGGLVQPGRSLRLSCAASGFTFDDYAMHWVRQAPGKGLEWVSGISWNSYSIGYADSVIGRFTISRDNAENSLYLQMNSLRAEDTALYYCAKVGRGGGYNDYWGQGTLVTVSS", "log10 Kd (nM) by replicate": "1.84 1.67 1.55", "mean log10 Kd (nM)": "1.69", "empty controls": "3/9 (4.94)"}
{"VH": "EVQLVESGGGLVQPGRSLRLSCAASGFTFDDYAMHWVRQAPGKGLEWVSGISWSSGSIGYADSVKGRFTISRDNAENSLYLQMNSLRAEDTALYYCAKVGRKGGGFDYWGQGTLVTVSS", "log10 Kd (nM) by replicate": "1.66 1.91 1.64", "mean log10 Kd (nM)": "1.74", "empty controls": "6/9 (4.31)"}

From the AlphaSeq antibody data of Engelhart et al. 2022 (doi:10.1038/s41597-022-01779-4), copy in the FLAb collection.